In experiment [1] the target is T1, AR T850D (Homo sapiens, UniProt P10275, T851D). Put plainly: Whole-cell competition ligand binding assay in COS-7 cells. The settings on record: tested as the radiolabelled form.
In experiment [2] the target is T2, AR WT (Homo sapiens, UniProt P10275). The description is as above. Conditions: mean ± SE, tested as the radiolabelled form.
For experiment [3], the target named is T1, AR T850D. Put plainly: Whole-cell ligand dissociation assay in COS-7 cells. The settings on record: 5 nM radioligand, then 10,000-fold excess of R1881, tested as the radiolabelled form.
Experiment [4] concerns the target T2, AR WT. The experiment is described as above. The settings on record: 5 nM radioligand, then 10,000-fold excess of R1881, tested as the radiolabelled form.

Values joined by “and” are separate entries in the source; they are usually repeats but may differ in a detail not shown here. Equal values may be shown once.

We go through one molecule from publication PMC8836279, “The T850D Phosphomimetic Mutation in the Androgen Receptor Ligand Binding Domain Enhances Recruitment at Activation Function 2” (International Journal of Molecular Sciences, 2022).

For the molecule `C[C@]1(O)CC[C@H]2[C@@H]3CCC4=CC(=O)CCC4=C3C=C[C@@]21C`, the Bmax was 17,849 (±959) cpm at AR T850D [1] (mean ± SE) and 11,905 (±488) cpm at AR WT [2]. Also, the “increase of maximal binding, AR T850D vs. AR WT” value at AR T850D [1] is “approximately 50%”. For the same molecule, the “dissociation half-time t1/2” value on AR T850D [3] is 121 min and 120.8 (±21.7) min; at AR WT [4] it was 126 min and 126.4 (±21.4) min.
